Test results: patent US20150190461A1, “DOSING INSTRUCTIONS FOR ENDOTOXIN-BINDING LIPOPEPTIDES” (priority 2012, published 2015)

Conditions: determined from the half-life for PMB of 13.6; calculation example

For polymyxin B [PMB], the “PMB clearance of the patient” value was 36 mL/min.
